Measurements: paper PMC4387075 (Neuropharmacology, 2015)

Chains of the proteins cited; added tags and fusions are not shown. Residues count along the entry.
UniProt P23385, 19-1199: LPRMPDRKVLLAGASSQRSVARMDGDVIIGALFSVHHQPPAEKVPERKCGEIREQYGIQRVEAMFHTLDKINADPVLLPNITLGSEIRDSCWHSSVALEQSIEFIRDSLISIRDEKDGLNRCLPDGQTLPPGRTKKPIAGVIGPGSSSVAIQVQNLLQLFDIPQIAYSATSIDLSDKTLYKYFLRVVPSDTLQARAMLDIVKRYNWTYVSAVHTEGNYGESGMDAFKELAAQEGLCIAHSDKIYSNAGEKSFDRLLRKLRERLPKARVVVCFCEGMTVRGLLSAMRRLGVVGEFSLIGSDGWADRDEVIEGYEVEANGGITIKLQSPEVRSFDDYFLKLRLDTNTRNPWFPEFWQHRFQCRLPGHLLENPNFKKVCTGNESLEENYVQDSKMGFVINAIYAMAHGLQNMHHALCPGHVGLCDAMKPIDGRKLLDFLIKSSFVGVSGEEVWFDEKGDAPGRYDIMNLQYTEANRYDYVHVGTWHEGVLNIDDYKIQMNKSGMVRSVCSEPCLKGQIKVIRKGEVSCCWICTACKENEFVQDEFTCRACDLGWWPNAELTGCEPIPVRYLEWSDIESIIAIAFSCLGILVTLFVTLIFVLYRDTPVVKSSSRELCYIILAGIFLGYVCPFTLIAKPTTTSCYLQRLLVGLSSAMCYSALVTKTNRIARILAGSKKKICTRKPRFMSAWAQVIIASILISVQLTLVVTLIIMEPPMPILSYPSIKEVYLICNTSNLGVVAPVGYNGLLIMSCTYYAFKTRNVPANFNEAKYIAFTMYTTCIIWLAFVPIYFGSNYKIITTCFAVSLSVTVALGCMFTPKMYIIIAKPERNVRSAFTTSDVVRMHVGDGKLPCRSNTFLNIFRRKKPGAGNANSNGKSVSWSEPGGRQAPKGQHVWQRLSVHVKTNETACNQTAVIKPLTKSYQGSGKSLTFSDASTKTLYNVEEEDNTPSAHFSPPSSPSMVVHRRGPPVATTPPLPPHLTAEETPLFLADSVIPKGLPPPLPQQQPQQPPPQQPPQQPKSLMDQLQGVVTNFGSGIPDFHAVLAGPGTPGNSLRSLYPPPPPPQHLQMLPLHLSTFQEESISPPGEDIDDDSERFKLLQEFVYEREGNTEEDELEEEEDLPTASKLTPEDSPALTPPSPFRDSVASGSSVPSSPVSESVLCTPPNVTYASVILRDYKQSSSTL

Target: mGlu1 receptors (Rattus norvegicus, UniProt P23385)
Assay: PI hydrolysis
Format: cell-based

N[C@@]1(C(=O)O)CC[C@@H](C(=O)O)C1 [ACPD, (1S,3R)-1-aminocyclopentane-1,3-dicarboxylic acid]
EC50: 30 µM
